Reference: patent publication US6384051B1, “Method of treating or inhibiting colonic polyps” (American Cyanamid Company, priority 2000, dated 2002)

Key:
[1] = system: min mouse; assay: in vivo standard pharmacological test procedure emulating familial adenomatous polyps (FAP): min mouse, compound blended in chow for 60 days, polyp number at day 61
Description: The compound of Example 399 was evaluated in this procedure, which emulates familial adenomatous polyps (FAP) in humans, as a representative compound of this invention. The min mouse used in this test procedure, currently the best available model for FAP, is a strain that has lost both copies of the APC gene. These animals develop multiple intestinal polyps (adenomas). The polyps that develop in min mice express EGFR and have activated COX-2. […] The following briefly describes the procedure used and the results obtained in this standard pharmacological test procedure.
The compound of Example 399 was blended with a standard murine chow and animals were given ad libitum access to the food for 60 days. Based on estimated food consumption, the compound of Example 399 was added at concentration commensurate with animals ingesting either 5 mg/kg/day or 150 mg/kg/day. At day 61, 10-15 animals in each treatment group+10-15 control (chow alone) animals corresponding to each treatment group were sacrificed and assessed for polyp number. The following table summarizes the results.

[2] = system: Min mouse (C57BL/6J-Min/+); assay: in vivo test procedure emulating FAP: Min mouse (C57BL/6J-Min/+), compound blended with AIN-93G chow for 60 days, intestinal polyps counted on day 61
Excerpt: The procedure described below emulates familial adenomatous polyps (FAP) in humans using the Min mouse (C57BL/6J-Min/+), which is a strain of mice that has a mutation in the APC (Adenomatous Polyposis Coli) Gene. These animals develop multiple intestinal polyps (adenomas) when raised on a high fat diet that ultimately lead to death by 120 days of age due to anemia and or intestinal blockage. The polyps that develop in Min mice express EGFR and have activated COX-2. The following briefly describes the procedure used and the results obtained in this standard pharmacological test procedure.
Test animals were divided into two treatment groups: Group I, control and Group II, (4-dimethylamino-but-2-enoic acid [4-(3-chloro-4-fluoro-phenylamino)-3-cyano-7-ethoxy-quinolin-6-yl]-amide. The test compound administered to Group II was blended with AIN-93G murine chow (Bioserve, Frenchtown, N.J.) and animals were given ad libitum access to the food, in quantities corresponding to the approximate daily dose of 20 mg/kg (4-dimethylamino-but-2-enoic acid [4-(3-chloro-4-fluoro-phenylamino)-3-cyano-7-ethoxy-quinolin-6-yl]-amide. The animals were treated for 60 days. The food was weighed once per week to determine consumption, and the animals also weighed weekly. […] The intestinal tracts were then opened and the number of polyps counted. […]

CCOc1cc2ncc(C#N)c(Nc3ccc(F)c(Cl)c3)c2cc1NC(=O)C=CCN(C)C [Example 399, 4-Dimethylamino-but-2-enoic acid [4-(3-chloro-4-fluoro-phenylamino)-3-cyano-7-ethoxy-quinolin-6-yl]-amide]
Mean # Polyps ± S.D. ([1]; Group I, 5 mg/kg/day in chow ad libitum, control 32.6 ± 19.1): 15.6 ± 6.0
Mean # Polyps ± S.D. ([1]; Group II, 150 mg/kg/day in chow ad libitum, control 19.5 ± 14.1): 2.6 ± 1.6
reduced polyp numbers when compared to the AIN-93G control diet alone ([2]; approximate daily dose of 20 mg/kg): 87%
Number of Polyps ([2]; approximate daily dose of 20 mg/kg in AIN-93G chow, control (Group I) 19.5 ± 14.1): 2.6 ± 1.6
